Earlier results on 1 compound are cited in patent US4255433A, “(+)-(3-Methyl-4-oxo-5N-piperidinothiazolidin-2-ylidene)acetic acid esters, method of preparation and use” (Godecke Aktiengesellschaft, priority 1979, dated 1981).

The LD50 is the dose at which mortality reaches 50%.

The subject of this data set is mice. As to conditions: mouse, in vivo; cited from earlier work.

With `Nc1nc(N)c2nc(-c3ccccc3)c(N)nc2n1` [Compound G, 6-phenyl-2,4,7-pteridinetriamine], the LD50 was 450 mg/kg.
